Laboratory results as given in article PMC11106956, “Population pharmacokinetics of primaquine and its metabolites in African males” (Malaria Journal, 2024).

Conditions: single oral PQ 0.40-0.50 mg/kg; typical individual 62.5 kg; metabolites dosed as PQ molar dose 1:1

SMILES: COc1cc(NC(C)CCCN)c2ncccc2c1 (stereo not shown) [Primaquine]
- VC/F, apparent volume of distribution of the central compartment, population estimate (%RSE): 163 (10.3%) L
